This note sets out measurements from ChEMBL document CHEMBL1126552 (J Med Chem, 1993).

By UniProt entry, the sequences of proteins in these tests, tags left out.
UniProt P25099, whole entry: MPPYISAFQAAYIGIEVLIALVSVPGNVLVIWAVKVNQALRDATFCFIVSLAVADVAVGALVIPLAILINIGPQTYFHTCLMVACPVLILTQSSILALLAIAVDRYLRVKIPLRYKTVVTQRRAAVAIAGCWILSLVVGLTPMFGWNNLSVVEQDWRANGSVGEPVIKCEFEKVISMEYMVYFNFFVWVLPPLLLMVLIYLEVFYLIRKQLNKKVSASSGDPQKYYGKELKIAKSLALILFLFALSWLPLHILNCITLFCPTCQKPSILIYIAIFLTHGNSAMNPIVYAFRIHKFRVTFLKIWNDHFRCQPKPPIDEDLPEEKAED

By Ki is commonly meant a dissociation constant, usually derived from enzyme kinetics or from competition with a known ligand. Read a low Ki as a stronger hold on the target.

In the assay the target is Adenosine receptor A1 (Rattus norvegicus, UniProt P25099). As to the kind of experiment: Binding affinity towards adenosine A1 receptor was determined using radioligand [3H]CHA in whole rat brain membranes at 25 degree C. The class given is cell membranes.

`CCCn1c(=O)c2[nH]c(C3Cc4ccccc4C3)nc2n(CCC)c1=O` displayed an inhibition constant Ki of 64.3 nM. This lies in the double-digit nanomolar range.
